Counter-ions that a name gives are not always drawn. Like-named read-outs stand apart in the source and are kept apart here. Blank lines part the entries; values can stand above or below the compound they belong to.
Tests used:
[1] = biological target: PDE10A (H-PDE10A2, Human Phosphodiesterase 10A2) (Homo sapiens (Human), UniProt Q9Y233); assay: Measurement of PDE10A inhibitory activity-1 (3H-cAMP, recombinant enzyme); format: biochemical; details: H-PDE10A2, 64 nM cAMP, 25° C., 2 hours
Experimental: To a solution containing 20 mM Tris-HCl (pH 7.5), 1 mM MgCl2, 100 μM EDTA, 330 μg/ml bovine serum albumin, 50 kU/ml 5′-nucleotidase, 0.1 μCi ^3H-cAMP (64 nM cAMP), and PDE10A (H-PDE10A2, Human Phosphodiesterase 10A2, Scottish Biomedical), a test compound was added, and the mixture was reacted at 25° C. for 2 hours. To the reaction solution, QAE-Sephadex (17-0190-01, GE Healthcare Japan Corp.) suspended in 10 mM HEPES-Na (pH 7.0) (hereinafter, also referred to as a “QAE-Sephadex suspension”) was added, and the mixture was shaken for 1 minute and left standing for 5 minutes to obtain a supernatant. To the supernatant, a QAE-Sephadex suspension was further added, and the mixture was shaken for 1 minute and left standing for 5 minutes. Then, the obtained supernatant was transferred to LumaPlate (PerkinElmer, Inc.) and assayed using a radiation counter (TopCount NXT, PerkinElmer, Inc.).
The value of the sample reacted without the addition of both a test compound and PDE10A was defined as 0%, and the value of the sample reacted in the presence of PDE10A without the addition of a test compound was defined as 100%. […] As is evident, the compound of the present invention has PDE10A inhibitory activity.

Protein sequences, listed by entry. Tags and fused reporters are not part of them. Residues count along the entry.
UniProt Q9Y233, 267-1055: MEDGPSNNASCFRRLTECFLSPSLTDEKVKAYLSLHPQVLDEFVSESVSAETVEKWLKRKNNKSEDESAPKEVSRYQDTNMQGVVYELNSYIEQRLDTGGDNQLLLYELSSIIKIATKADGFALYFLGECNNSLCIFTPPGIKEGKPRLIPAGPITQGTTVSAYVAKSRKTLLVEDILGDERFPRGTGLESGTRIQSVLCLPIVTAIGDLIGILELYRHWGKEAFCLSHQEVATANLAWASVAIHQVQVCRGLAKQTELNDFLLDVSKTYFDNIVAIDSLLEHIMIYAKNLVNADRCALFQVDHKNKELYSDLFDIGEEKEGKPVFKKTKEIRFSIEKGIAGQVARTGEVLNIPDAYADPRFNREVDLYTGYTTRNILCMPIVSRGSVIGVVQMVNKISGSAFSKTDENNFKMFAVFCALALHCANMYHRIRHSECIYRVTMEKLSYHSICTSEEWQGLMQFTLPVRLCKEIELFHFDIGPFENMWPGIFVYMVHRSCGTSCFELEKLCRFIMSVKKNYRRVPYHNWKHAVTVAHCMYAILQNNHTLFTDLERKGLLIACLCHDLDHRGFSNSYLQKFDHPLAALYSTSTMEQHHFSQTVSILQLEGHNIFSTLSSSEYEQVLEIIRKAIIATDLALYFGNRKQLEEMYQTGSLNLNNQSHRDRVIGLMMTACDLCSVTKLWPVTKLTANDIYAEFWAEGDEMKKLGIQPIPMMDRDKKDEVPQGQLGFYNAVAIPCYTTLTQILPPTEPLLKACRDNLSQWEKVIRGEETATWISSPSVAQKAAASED

PDE10A = PDE10A (Homo sapiens (Human), UniProt Q9Y233); assay: Measurement of PDE10A inhibitory activity-2 (PDE10A fraction prepared from MOLT-4 cells); format: biochemical
Experimental: A human acute lymphoblastic lymphoma T cell line MOLT-4 (which can be purchased under ATCC No. CRL-1582 from ATCC) was cultured in an RPMI1640 medium containing 10% fetal bovine serum to obtain 5×10^8 MOLT-4 cells. The cells were recovered by centrifugation and suspended in 10 ml of buffer solution A (25 mM Tris-HCl, 5 mM 2-mercaptoethanol, 2 mM benzamidine, 2 mM EDTA, and 0.1 mM 4-(2-aminoethyl)benzenesulfonyl hydrochloride, pH 7.5). The cells were homogenized using a Polytron homogenizer and centrifuged (4° C., 25,000 g, 10 minutes). Then, the supernatant was further ultracentrifuged (4° C., 100,000 g, 60 minutes). The obtained supernatant was filtered through a 0.2 μm filter to obtain a soluble fraction.
HiTrap Q HP column (5 ml×2, GE Healthcare Japan Corp.) equilibrated with buffer solution A was charged with the obtained soluble fraction. Phosphodiesterase was eluted with 300 ml of buffer solution A containing a linear gradient solution of 0 to 0.8 M NaCl to recover sixty 5-ml fractions. Each fraction was tested for cAMP-metabolizing phosphodiesterase activity.
On the other hand, total RNA was prepared from Jurkat cells, one type of human T cell, and similarly subjected to RT-PCR. […] Eur J Biochem. 1999, 266 (3), 1118-2 has reported that PDE10A from the rat striatum and testis is eluted as an active peak centered around 250 mM NaCl.
For these reasons, this fraction was used as a solution for the evaluation of PDE10A inhibitory activity. The obtained solution was used to calculate the inhibitory activity (IC50) of a test compound in the same way as in the aforementioned test.

IC50 ([1]; hydrochloride): 3.1 nM | IC50 (PDE10A; PDE10A fraction from MOLT-4 cells (peak around 250 mM NaCl), read-out: IC50): 0.82 nM
SMILES: COCc1ccc(C(C)=O)c2sc(C(=O)Nc3ccc4c(CO)cccc4n3)c(C)c12.Cl [Example 77, 7-Acetyl-N-(5-(hydroxymethyl)quinolin-2-yl)-4-(methoxymethyl)-3-methylbenzo[b]thiophene-2-carboxamide hydrochloride]

IC50 ([1]; methanesulfonate): 1.7 nM
SMILES: COCc1ccc(C(C)=O)c2sc(C(=O)Nc3ccc4c(CO)cccc4n3)c(C)c12 [Example 78, 7-Acetyl-N-(5-(hydroxymethyl)quinolin-2-yl)-4-(methoxymethyl)-3-methylbenzo[b]thiophene-2-carboxamide methanesulfonate]

IC50 ([1]; hydrobromide): 1.1 nM
SMILES: COCc1ccc(C(C)=O)c2sc(C(=O)Nc3ccc4c(CO)cccc4n3)c(C)c12 [Example 80, 7-Acetyl-N-(5-(hydroxymethyl)quinolin-2-yl)-4-(methoxymethyl)-3-methylbenzo[b]thiophene-2-carboxamide hydrobromide]

IC50 ([1]; p-toluenesulfonate): 1.9 nM
SMILES: COCc1ccc(C(C)=O)c2sc(C(=O)Nc3ccc4c(CO)cccc4n3)c(C)c12.Cc1ccc(S(=O)(=O)O)cc1 [Example 81, 7-Acetyl-N-(5-(hydroxymethyl)quinolin-2-yl)-4-(methoxymethyl)-3-methylbenzo[b]thiophene-2-carboxamide p-toluenesulfonate]

IC50 (PDE10A): 0.34 nM
SMILES: Cl.[2H]C([2H])(O)c1cccc2nc(NC(=O)c3sc4c(C(C)=O)ccc(COC)c4c3C)ccc12 [Example 119, 7-Acetyl-N-(5-(hydroxy(^2H2)methyl)quinolin-2-yl)-4-(methoxymethyl)-3-methylbenzo[b]thiophene-2-carboxamide hydrochloride]

IC50 (PDE10A): 0.64 nM
SMILES: [2H]C([2H])([2H])OCc1ccc(C(C)=O)c2sc(C(=O)Nc3ccc4c(CO)cccc4n3)c(C)c12 [Example 120, 7-Acetyl-N-(5-(hydroxymethyl)quinolin-2-yl)-4-((^2H3)methoxymethyl)-3-methylbenzo[b]thiophene-2-carboxamide]

From patent US9464076B2, “Benzothiophene derivative” (Daiichi Sankyo Company, Limited, priority 2013, dated 2016)
